Biological target: CaM (Homo sapiens, UniProt P0DP23)
Test: Competition for binding of CaM-12.1 phage to CaM
Conditions: preliminary experiments
Procedure: The binding properties of the CaM-12.1 TSAR were further examined in several ways. First, the ability of CaM-12.1 phage to bind other calcium-binding proteins was tested. […] Second, the ability of natural calmodulin binding peptides and proteins to compete for binding of the CaM-12.1 phage with CaM was tested. […] Third, the ability of a synthetic non-peptide CaM-antagonist, W7, (#681629; Calbiochem, San Diego, Calif.), was tested for its ability to compete for binding of CaM-12.1 to CaM. […] In summary: (1) CaM-12.1 binds CaM specifically, and not because it is a high-affinity Ca^2 +-binding protein; (2) CaM-12.1 binds CaM at a site partially overlapping or influenced, by the binding sites of CaM-dependentprotein kinase peptide, melittin and W7.

CC[C@H](C)[C@H](NC(=O)CN)C(=O)NCC(=O)N[C@@H](C)C(=O)N[C@H](C(=O)N[C@@H](CC(C)C)C(=O)N[C@@H](CCCCN)C(=O)N[C@H](C(=O)N[C@@H](CC(C)C)C(=O)N[C@H](C(=O)N[C@H](C(=O)NCC(=O)N[C@@H](CC(C)C)C(=O)N1CCC[C@H]1C(=O)N[C@@H](C)C(=O)N[C@@H](CC(C)C)C(=O)N[C@H](C(=O)N[C@@H](CO)C(=O)N[C@@H](Cc1c[nH]c2ccccc12)C(=O)N[C@H](C(=O)N[C@@H](CCCCN)C(=O)N[C@@H](CCCNC(=N)N)C(=O)N[C@@H](CCCCN)C(=O)N[C@@H](CCCNC(=N)N)C(=O)N[C@@H](CCC(N)=O)C(=O)N[C@@H](CCC(N)=O)C(N)=O)[C@@H](C)CC)[C@@H](C)CC)[C@@H](C)O)[C@@H](C)O)C(C)C)C(C)C [melittin]
competition with CaM-12.1 for binding to CaM: could compete

Source: US5948635A, “Totally Synthetic Affinity Reagents” (University of North Carolina at Chapel Hill, priority 1995, dated 1999)
